Test results from patent US20040091985A1, “NAD phosphite oxidoreductase, a novel catalyst from bacteria for regeneration of NAD(P)H” (priority 2002, published 2004).

Protein sequences, listed by entry. Tags and fused reporters are not part of them. Lines headed by an entry give the natural chain unless they say otherwise; changes in a name come on top.
UniProt O69054: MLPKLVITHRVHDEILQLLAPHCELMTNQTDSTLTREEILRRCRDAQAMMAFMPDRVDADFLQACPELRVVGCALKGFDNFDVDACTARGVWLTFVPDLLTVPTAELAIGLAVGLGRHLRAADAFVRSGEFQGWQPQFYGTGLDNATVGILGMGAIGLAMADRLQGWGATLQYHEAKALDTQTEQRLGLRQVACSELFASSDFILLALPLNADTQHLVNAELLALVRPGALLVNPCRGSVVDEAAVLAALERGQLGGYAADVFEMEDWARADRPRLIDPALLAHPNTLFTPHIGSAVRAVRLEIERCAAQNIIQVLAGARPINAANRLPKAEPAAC

Target: PtxD (Stutzerimonas stutzeri, UniProt O69054)
Assay: Inhibition of PtxD activity by cofactor analogs and substrate analogs
Assay type: biochemical, Pseudomonas stutzeri WM88
Settings: see Table 2

Row | Substance | inhibitory activity on PtxD, in words
1 | D-2-Hydroxy-4-methylvalerate | moderately inhibited
2 | Formate | moderately inhibited
